This is a selection: effects in other tests are not listed, and their absence says nothing.
These molecules were tested against T1, Y2 receptors (Homo sapiens, UniProt P49146) (assay: Radioligand binding assay, [125I]PYY, KAN-Ts membranes). Settings: membranes of KAN-Ts cells endogenously expressing Y2 receptors; [125I]PYY (80 pM); 1 h at rt.

Sequences of proteins named here, by UniProt entry; tags and fusion partners are left off.
UniProt P49146, whole entry: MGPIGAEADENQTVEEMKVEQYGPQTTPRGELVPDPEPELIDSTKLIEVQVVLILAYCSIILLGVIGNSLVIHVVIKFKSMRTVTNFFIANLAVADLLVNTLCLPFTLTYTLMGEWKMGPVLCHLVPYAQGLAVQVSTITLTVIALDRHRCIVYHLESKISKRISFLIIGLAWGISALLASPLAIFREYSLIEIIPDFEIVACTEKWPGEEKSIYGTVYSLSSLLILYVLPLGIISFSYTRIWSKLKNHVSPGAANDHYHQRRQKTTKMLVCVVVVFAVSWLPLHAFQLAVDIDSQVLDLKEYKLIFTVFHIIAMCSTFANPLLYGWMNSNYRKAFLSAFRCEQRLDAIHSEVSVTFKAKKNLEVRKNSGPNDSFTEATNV

Compound	IC50
CC(=O)N1CCCc2ccc(N(C(=O)/C=C/c3ccccc3)C3CCN(Cc4ccccc4)CC3)cc21	10000 nM
CC(=O)N1CCc2ccc(N(C(=O)/C=C/c3ccccc3)C3CCN(CCC4CCCC4)CC3)cc21	800 nM
CC(=O)N1CCc2ccc(N(C(=O)/C=C/c3ccccc3)C3CCN(CCC4CCCCC4)CC3)cc21	600 nM
CC(=O)N1CCc2ccc(N(C(=O)/C=C/c3cccc([N+](=O)[O-])c3)C3CCN(CCC4CCCCC4)CC3)cc21	500 nM
CC(=O)N1CCc2ccc(N(C(=O)/C=C/c3cccc(Cl)c3)C3CCN(Cc4ccccc4)CC3)cc21	3000 nM
CC(=O)N1CCc2ccc(N(C(=O)/C=C/c3cccc(C#N)c3)C3CCN(Cc4ccccc4)CC3)cc21	1000 nM

These molecules were tested against T1, Y2 receptors (assay: [35S]GTPγS binding assay in KAN-Ts cells). Settings: PYY-stimulated [35S]GTPγS binding; KAN-Ts membranes.

Compound	mode of action in [35S]GTPγS binding assay
CC(=O)N1CCc2ccc(N(C(=O)/C=C/c3cccc(C#N)c3)C3CCN(CCC4CCCC4)CC3)cc21	competitive

Source: patent US7317025B2, “Non-peptidic NPY Y2 receptor inhibitors” (Johnson & Johnson Pharmaceutical Research & Development, LLC, priority 2003, dated 2008)
